# Measurements taken from PubChem BioAssay (Tox21).
# The list shows a part of the results, in another mix than the full data. Results filed as inconclusive are left out. Calls of active or inactive are those of the source. Calls follow the shape of the dose curve; as a rule, active = well fitted inhibition curve with a large enough effect in the repeat runs; inconclusive = weak or mixed curves; inactive = no such curve, though single readings can be large or run the other way.
# Experiment: qHTS assay to identify small molecule antagonists of the thyroid receptor (TR) signaling pathway (AID 743065); also: nearly all actives have a fitted effect of over 55% in size
# Conditions: GH3.TRE-Luc, T3-stimulated luciferase inhibition, 23.5 h; series mostly up to 70.3 µM; activity, negative = inhibition: at the top concentration
# Excerpt: U.S. Tox21 Program National Center for Advancing Translational Sciences [NCATS] NIH Chemical Genomics Center [NCGC] U.S. Environmental Protection Agency [EPA] National Institutes of Environmental Health Sciences [NIEHS] National Toxicology Program [NTP] U.S. Food and Drug Administration [FDA] Tox21 Assay Overview: Thyroid receptor (TR), a nuclear hormone receptor, plays an important role in development, proliferation, differentiation, metabolism, brain function, and cardiovascular system. […] To profile the Tox21 10K compound library in TR signaling, a cell-based GH3-TRE-Luc assay (GH3.TRE-Luc cell line, developed by the laboratory of Dr. Albertinka J. Murk, Wageningen University) was used to measure the inhibition of TR. GH3 (rat pituitary tumor) cells stably expressing a TR activity sensor consisting of two TR response elements and a luciferase reporter gene.
# Tox21 Assay Protocol Summary: GH3.TRE-Luc cells were dispensed at 1500 cells/4 uL/well into 1536-well white solid bottom plates using a Multidrop Combi dispenser (Thermo Fisher Scientific Inc., Waltham, MA). After the assay plates were incubated at 37 C for 4 hours, 23 nL of library compound or DMSO controls was transferred to the assay plates by a pintool station (Kalypsys, San Diego, CA), followed by addition of 1 ul of T3 (1 nM, final concentration in the wells) to stimulate TR transactivation. The assay plates were incubated at 37 C for 23.5 h, and then 1 uL of CellTiter-Fluor reagent (Promega, Madision, WI) of measuring cytotoxicity was added to each well using a Bioraptr Flying Reagent Dispenser (FRD) workstation (Beckman Coulter, Indianapolis, IN, USA). The plates were incubated at 37 C and 5% CO2 for additional 30 min, and fluorescence intensity was measured by a ViewLux plate reader (PerkinElmer, Shelton, CT). For measuring luciferase reporter gene activity, 4 uL of ONE-Glo Luciferase Assay reagent (Promega) was added to each well using a Bioraptr FRD (Beckman Coulter), followed by 30 min incubation at room temperature. The luminescence intensity of plates was recorded by a ViewLux plate reader (PerkinElmer, Shelton, CT).
# % is scaled to controls: 0 for no effect and ±100 for the full control effect; potency is read from the fitted curve at half-maximal effect.
SMILES,Potency,"activity, negative = inhibition"
CCN(CC)CCCl,active: 62 µM,–
COP(C)(=O)OC,inactive,–
O=[N+]([O-])c1cccc([N+](=O)[O-])c1,–,inactive: -9.85%
CN(C)CCS,–,inactive: 0.0179%
O=[N+]([O-])OCC(CO[N+](=O)[O-])(CO[N+](=O)[O-])CO[N+](=O)[O-],inactive,–
CC(C)N(CCO)C(C)C,–,inactive: -13.7%
N=C(N)N[N+](=O)[O-],–,inactive: 4.87% [at 95 µM]
CP(=O)(O)OCCC[Si](O)(O)O,–,inactive: 14.4%
C/C1=C2N=C(/C=C3N=C(/C(C)=C4\[N-][C@@](C)([C@@H]5N=C1[C@](C)(CCC(=O)NC[C@@H](C)OP(=O)([O-])O[C@H]1[C@@H](O)[C@@H](n6cnc7cc(C)c(C)cc76)O[C@@H]1CO)[C@H]5CC(N)=O)[C@@](C)(CC(N)=O)[C@@H]4CCC(N)=O)[C@@](C)(CC(N)=O)[C@@H]\3CCC(N)=O)C(C)(C)[C@@H]/2CCC(N)=O.[C-]#N.[Co+3],–,inactive: 0.0878% [at 32.5 µM]
Nc1cc([N+](=O)[O-])cc([N+](=O)[O-])c1O,–,inactive: -17% [at 95 µM]
CCOP(=O)(CC)Oc1ccc([N+](=O)[O-])cc1 (stereo not drawn),–,inactive: -7.31%
CCOP(=O)(CC)OCC,–,inactive: 5.87%
Cc1c([N+](=O)[O-])cccc1[N+](=O)[O-],inactive,–
CC(C)N(CCCl)C(C)C,–,inactive: 2.79%
CC(C)OP(C)(=O)OC(C)C,inactive,–
OCCSCCO,inactive,–
Cc1ccc([N+](=O)[O-])cc1[N+](=O)[O-],inactive,–
CC(C)OP(=O)(F)OC(C)C,–,inactive: 12.2%
